The values below come from patent US9260759B2, “Pyrazoloanthrone and derivatives thereof for the treatment of cancers expressing MISRII” (The General Hospital Corporation, priority 2007, dated 2016).

Amino acid sequences for entries named in this document (tags omitted).
UniProt P53779, whole entry, species assumed: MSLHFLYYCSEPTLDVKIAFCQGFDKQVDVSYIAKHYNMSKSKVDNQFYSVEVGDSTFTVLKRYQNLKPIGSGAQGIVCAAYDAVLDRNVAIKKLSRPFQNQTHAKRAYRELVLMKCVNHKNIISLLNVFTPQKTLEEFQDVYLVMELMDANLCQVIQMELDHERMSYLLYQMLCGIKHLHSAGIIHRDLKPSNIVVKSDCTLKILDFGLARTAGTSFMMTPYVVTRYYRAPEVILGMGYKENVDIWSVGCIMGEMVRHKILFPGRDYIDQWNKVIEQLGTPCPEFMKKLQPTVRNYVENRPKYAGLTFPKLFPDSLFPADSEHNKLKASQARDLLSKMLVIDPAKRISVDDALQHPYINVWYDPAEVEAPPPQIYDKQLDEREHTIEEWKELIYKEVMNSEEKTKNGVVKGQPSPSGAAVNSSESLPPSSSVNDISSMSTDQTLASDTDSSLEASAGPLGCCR

For experiment [1], the target named is T1, BMP type II receptor (BMPRII) (Homo sapiens, UniProt Q13873).
T1 construct: expressed in transfected cells; host or cells: COS7
T1 sequence (Q13873 27-1038): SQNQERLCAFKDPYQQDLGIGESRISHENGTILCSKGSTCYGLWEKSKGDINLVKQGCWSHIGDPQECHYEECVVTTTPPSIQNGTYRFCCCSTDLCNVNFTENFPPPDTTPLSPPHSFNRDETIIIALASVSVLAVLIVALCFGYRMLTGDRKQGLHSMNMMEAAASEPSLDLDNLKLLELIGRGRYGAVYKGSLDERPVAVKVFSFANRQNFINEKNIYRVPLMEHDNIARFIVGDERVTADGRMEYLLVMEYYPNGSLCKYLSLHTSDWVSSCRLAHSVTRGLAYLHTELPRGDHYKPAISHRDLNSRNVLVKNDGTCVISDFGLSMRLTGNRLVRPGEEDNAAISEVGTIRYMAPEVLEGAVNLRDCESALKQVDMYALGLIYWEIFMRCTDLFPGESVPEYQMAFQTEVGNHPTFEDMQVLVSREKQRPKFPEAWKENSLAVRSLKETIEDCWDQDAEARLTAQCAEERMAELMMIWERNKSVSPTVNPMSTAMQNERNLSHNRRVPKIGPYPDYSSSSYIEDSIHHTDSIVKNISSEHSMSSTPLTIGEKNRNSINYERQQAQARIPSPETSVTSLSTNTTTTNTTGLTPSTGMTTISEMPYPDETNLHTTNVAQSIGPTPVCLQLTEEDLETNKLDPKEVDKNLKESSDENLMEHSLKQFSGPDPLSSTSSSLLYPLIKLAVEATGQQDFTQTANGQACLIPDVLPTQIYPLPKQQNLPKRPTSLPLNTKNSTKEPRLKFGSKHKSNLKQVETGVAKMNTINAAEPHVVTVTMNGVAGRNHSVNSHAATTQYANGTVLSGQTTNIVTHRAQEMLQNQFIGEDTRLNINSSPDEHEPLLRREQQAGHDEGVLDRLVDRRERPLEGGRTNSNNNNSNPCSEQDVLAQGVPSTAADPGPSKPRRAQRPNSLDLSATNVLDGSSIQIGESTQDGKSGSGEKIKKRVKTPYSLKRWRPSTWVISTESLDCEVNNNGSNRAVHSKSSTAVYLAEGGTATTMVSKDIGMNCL
As to the kind of experiment: BRE-luciferase reporter assay in COS7 cells transfected with BMP type II receptor. The format is cell-based. Particulars: 25 ng/ml BMP2, COS7. How it is done: The results represent the mean values from three independent experiments performed in triplicates (Error bars represent SEM).*P<0.05, **P<0.01. […] The results represent the mean values from three different independent experiments. […] Luciferase activity was measured and normalized to phRL-CMV activity. […] Results shown represent the mean values form three independent experiments. […] The results shown are the mean values from three independent experiments. (Error bars represent SEM, ***p<0.001).
Little is known about the down-stream signaling events that follow MIS binding to its receptor. Reporters that have been used to study MIS effects include the BMP-specific reporter genes XVent2 and Tlx (Clarke, 2001b). In this study the inventors used a BMP-responsive (BRE) promoter to drive expression of firefly luciferase. This reporter is also activated by BMPs, but not by TGFβ or activin (Korchynskyi and ten Dijke, 2002). To investigate the receptor-specificity of SP600125 and exclude the possibility that this molecule activates other signaling pathways common for the TGFβ family, the inventors transfected COS7 cells with a BMP type II receptor (BMPRII) expression construct and the BRE-luciferase reporter. […]
For orientation: In a reporter assay the amount or activity of a reporter protein is the signal.

The target of a further experiment is JNK3 (Homo sapiens, UniProt P53779). To be noted: cited from earlier work.

The term IC50 denotes the concentration needed to halve the response being measured.

For “BMP2: a ligand for BMPRII, purchased from R&D Systems”, the “BRE-luciferase activity in BMPRII-transfected cells” value in experiment [1] is “induced BRE-luciferase activity”.
With `O=C1c2ccccc2-c2n[nH]c3cccc1c23` [SP600125, anthra[1,9-cd]pyrazol-6(2H)-one], the half-inhibitory concentration (IC50) at JNK3 is around 0.15 µM.
